2 compounds from article PMC5858991 (Neuropharmacology, 2018) can be followed below.

Protein sequences, listed by entry. Tags and fused reporters are not part of them.
UniProt Q99720, whole entry: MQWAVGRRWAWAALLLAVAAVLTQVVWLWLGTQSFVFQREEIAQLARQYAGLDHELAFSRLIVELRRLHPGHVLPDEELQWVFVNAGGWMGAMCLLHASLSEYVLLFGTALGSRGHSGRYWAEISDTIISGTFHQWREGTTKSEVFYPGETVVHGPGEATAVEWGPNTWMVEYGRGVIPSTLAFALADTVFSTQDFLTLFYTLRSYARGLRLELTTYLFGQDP

Read-outs that look alike come from different tables or passages of the source.

The target in experiment [1] is σ1R homomer (Homo sapiens, UniProt Q99720). Put plainly: Drug induced σ1R homomer BRET. The format is cell-based. (BRET reads energy transfer from a luciferase to a nearby fluorophore.)
Experiment [2] deals with FH-σ1R (Homo sapiens, UniProt Q99720).
Experiment [3] has as its target σ1R (Homo sapiens, UniProt Q99720).
Experiment [4] has as its target σ1R-BiP interaction (Homo sapiens, UniProt Q99720). The following applies: σ1-NL:VN-BiP, 2.5 and 10 min.
[5] abbreviates: BRET-transfected whole HEK293T cells.
Setting [6] is: intact whole non-transfected HEK293T cells.

Take `CC(C)=CCN1CC[C@]2(C)c3cc(O)ccc3C[C@H]1[C@H]2C` [(+)-pentazocine]: the “effect on σ1R homomer BRET in competition mode” value in experiment [1] (1 μM haloperidol or 1 μM PD144418 added prior to tested ligand) was “dose-dependent effects”. The “effect on σ1R homomer BRET signaling” value in experiment [1] (single-ligand mode, σ1-NL:σ1-VN, 2.5-60 min) is on record as “no detectable effects on BRET signaling”. Further, the “effect on σ1R multimer band” value in experiment [2] (haloperidol 0.1 or 1 μM, (+)-pentazocine 10 μM, non-denaturing gel) is “decreased the density of multimer bands”. Also, the “inhibition of multimer-promoting effect of haloperidol” value in experiment [2] (haloperidol:(+)-pentazocine 0.1:10 μM and 1:10 μM) is listed as “inhibited haloperidol's effect in a dose dependent manner”. Further, the “Bmax from binding kinetics” value worked out at 4289 ± 2745 fmol/mg in experiment [3] (setting [5]), 871 ± 403 fmol/mg in experiment [3] (HEK293T membrane preparation) and 1041 ± 540 fmol/mg in experiment [3] (setting [6]). Further, the “drug induced σ1R-BiP BRET change” value in experiment [4] was “bimodal dose response effect”.

As to `CC(C)=CCN1CC[C@]2(C)c3cc(O)ccc3C[C@H]1[C@H]2C` [[^3H]-(+)-pentazocine], the “Bmax from binding kinetics” value turned out to be 4289 fmol/mg in experiment [3] (setting [5]), 871 fmol/mg in experiment [3] (HEK293T membrane preparation) and 1041 fmol/mg in experiment [3] (setting [6]).
